Reference: ChEMBL document CHEMBL3991601, “The target landscape of clinical kinase drugs” (Science, 2017)
Each block holds one compound with its values, some of them ahead of it. Activity calls are given as the source filed them. Rule as the data show it, for most assays here: actives have a measured Kd and inactives only a lower limit.

By UniProt entry, the sequences of proteins in these tests, tags left out. Where a name states a change or a piece, a line headed by the entry shows the natural chain unless it says otherwise.
UniProt P12931: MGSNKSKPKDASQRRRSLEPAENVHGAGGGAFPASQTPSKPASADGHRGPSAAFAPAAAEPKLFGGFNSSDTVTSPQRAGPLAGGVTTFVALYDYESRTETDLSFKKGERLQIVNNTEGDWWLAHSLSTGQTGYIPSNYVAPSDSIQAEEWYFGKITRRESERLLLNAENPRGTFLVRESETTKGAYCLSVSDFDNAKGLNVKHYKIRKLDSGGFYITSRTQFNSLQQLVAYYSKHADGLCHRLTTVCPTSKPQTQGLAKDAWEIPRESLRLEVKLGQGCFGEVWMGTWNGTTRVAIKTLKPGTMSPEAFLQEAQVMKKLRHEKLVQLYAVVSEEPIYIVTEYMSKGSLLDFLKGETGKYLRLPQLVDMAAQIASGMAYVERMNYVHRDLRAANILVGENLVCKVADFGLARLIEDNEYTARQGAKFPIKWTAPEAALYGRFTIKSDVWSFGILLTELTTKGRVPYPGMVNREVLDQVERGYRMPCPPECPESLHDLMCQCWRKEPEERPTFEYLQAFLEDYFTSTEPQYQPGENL
UniProt Q9NSY1, whole entry: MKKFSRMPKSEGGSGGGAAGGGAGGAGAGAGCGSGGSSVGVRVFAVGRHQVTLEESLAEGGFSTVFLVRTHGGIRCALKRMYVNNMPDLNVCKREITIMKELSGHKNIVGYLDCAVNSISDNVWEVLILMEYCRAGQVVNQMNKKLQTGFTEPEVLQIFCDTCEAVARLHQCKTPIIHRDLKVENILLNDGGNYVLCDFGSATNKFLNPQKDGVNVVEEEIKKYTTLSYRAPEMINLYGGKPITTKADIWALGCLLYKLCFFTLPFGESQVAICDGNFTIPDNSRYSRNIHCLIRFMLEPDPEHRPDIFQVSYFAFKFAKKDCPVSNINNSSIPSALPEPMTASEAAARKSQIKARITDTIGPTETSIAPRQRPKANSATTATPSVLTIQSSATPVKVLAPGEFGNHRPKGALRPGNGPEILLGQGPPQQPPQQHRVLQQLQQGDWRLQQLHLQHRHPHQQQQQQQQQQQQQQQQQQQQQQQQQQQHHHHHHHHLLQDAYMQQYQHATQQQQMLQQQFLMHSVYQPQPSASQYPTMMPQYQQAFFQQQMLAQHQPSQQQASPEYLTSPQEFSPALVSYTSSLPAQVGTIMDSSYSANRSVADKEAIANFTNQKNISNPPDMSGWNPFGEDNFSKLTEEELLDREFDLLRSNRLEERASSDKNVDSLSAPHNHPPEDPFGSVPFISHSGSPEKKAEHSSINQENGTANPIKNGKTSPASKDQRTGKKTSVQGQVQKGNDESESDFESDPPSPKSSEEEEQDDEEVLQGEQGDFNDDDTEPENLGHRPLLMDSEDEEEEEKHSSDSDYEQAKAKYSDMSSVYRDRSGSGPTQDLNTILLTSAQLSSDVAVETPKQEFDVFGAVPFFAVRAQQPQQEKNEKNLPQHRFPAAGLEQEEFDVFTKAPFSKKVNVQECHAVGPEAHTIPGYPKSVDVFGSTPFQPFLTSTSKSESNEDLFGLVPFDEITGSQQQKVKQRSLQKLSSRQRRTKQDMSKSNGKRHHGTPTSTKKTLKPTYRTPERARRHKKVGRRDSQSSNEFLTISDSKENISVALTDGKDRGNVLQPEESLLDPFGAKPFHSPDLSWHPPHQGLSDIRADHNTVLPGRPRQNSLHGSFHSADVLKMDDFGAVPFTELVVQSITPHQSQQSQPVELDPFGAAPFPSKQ
UniProt P29597: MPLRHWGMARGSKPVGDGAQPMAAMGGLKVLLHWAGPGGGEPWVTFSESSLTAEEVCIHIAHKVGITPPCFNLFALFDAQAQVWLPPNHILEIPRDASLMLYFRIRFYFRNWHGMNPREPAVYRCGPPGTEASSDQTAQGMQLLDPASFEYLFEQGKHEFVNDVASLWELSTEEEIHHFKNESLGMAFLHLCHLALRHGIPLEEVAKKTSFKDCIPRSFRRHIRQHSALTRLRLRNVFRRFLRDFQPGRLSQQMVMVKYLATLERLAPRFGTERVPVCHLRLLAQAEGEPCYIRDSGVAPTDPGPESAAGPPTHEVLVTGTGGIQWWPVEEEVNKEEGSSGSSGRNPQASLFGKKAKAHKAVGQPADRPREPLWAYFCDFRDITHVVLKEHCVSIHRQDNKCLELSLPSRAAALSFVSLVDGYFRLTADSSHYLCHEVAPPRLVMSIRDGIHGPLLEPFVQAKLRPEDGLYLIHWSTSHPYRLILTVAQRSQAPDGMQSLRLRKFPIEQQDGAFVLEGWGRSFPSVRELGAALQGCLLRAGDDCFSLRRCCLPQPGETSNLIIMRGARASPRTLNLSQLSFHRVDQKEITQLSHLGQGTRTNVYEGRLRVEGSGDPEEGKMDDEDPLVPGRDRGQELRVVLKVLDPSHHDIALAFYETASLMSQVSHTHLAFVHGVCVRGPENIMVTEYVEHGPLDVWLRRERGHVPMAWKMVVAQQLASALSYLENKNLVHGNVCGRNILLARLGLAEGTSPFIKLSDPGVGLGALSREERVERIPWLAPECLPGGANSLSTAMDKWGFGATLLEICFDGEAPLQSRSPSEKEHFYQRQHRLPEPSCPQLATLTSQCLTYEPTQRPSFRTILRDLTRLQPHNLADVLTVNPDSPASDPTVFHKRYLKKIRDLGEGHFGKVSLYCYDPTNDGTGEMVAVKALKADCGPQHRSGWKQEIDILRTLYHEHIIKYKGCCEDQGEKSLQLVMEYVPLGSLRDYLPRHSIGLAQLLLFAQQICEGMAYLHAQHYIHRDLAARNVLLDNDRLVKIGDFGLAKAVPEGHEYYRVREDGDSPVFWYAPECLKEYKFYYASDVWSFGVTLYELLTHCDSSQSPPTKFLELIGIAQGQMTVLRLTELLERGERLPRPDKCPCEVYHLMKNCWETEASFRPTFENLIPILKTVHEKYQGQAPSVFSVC
UniProt Q15746, whole entry: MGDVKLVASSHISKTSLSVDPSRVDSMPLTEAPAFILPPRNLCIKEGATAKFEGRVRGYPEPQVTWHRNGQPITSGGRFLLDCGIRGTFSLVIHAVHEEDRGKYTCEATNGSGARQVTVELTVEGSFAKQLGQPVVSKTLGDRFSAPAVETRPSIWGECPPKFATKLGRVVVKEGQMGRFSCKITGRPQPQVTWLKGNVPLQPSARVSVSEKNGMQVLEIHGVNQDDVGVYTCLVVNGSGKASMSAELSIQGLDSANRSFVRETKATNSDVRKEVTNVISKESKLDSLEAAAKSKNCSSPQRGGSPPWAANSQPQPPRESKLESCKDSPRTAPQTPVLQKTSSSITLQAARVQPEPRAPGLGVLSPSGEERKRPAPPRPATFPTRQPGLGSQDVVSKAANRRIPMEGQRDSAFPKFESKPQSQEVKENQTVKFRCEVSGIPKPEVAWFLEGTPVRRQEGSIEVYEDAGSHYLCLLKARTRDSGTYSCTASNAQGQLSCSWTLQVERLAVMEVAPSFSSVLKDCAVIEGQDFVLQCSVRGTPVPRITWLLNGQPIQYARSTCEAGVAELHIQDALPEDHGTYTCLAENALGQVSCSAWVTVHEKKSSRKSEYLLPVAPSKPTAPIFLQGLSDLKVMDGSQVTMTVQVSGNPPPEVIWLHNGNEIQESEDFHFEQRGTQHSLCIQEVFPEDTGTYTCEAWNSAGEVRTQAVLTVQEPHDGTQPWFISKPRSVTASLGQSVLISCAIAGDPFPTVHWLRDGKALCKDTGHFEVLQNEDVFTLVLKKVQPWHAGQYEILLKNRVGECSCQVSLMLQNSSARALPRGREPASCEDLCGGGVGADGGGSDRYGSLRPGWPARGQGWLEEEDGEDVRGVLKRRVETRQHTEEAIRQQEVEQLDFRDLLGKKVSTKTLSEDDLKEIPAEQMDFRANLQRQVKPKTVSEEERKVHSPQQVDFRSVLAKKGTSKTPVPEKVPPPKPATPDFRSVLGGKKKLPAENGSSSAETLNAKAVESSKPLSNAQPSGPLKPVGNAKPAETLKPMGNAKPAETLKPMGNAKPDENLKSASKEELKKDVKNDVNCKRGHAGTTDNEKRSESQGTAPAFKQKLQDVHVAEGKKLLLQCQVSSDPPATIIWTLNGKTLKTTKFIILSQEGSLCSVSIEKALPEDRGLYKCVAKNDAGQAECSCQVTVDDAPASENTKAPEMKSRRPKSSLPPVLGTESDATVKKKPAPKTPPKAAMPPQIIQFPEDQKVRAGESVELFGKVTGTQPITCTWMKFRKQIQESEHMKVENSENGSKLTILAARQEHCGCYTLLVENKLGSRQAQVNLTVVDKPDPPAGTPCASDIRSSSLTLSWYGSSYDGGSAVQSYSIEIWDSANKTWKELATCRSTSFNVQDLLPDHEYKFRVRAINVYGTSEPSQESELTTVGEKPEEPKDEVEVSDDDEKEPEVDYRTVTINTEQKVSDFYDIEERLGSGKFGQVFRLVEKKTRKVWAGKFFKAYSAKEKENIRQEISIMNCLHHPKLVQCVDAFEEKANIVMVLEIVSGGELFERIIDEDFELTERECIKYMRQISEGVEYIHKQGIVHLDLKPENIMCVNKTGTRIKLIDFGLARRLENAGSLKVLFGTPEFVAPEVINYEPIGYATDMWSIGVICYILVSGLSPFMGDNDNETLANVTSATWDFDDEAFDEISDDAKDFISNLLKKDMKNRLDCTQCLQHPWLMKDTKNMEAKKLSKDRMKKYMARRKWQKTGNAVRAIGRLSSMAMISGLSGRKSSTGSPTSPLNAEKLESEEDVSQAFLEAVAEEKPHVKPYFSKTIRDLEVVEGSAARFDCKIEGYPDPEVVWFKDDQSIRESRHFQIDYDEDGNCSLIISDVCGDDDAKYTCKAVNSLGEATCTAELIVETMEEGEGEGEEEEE
UniProt P07949, whole entry: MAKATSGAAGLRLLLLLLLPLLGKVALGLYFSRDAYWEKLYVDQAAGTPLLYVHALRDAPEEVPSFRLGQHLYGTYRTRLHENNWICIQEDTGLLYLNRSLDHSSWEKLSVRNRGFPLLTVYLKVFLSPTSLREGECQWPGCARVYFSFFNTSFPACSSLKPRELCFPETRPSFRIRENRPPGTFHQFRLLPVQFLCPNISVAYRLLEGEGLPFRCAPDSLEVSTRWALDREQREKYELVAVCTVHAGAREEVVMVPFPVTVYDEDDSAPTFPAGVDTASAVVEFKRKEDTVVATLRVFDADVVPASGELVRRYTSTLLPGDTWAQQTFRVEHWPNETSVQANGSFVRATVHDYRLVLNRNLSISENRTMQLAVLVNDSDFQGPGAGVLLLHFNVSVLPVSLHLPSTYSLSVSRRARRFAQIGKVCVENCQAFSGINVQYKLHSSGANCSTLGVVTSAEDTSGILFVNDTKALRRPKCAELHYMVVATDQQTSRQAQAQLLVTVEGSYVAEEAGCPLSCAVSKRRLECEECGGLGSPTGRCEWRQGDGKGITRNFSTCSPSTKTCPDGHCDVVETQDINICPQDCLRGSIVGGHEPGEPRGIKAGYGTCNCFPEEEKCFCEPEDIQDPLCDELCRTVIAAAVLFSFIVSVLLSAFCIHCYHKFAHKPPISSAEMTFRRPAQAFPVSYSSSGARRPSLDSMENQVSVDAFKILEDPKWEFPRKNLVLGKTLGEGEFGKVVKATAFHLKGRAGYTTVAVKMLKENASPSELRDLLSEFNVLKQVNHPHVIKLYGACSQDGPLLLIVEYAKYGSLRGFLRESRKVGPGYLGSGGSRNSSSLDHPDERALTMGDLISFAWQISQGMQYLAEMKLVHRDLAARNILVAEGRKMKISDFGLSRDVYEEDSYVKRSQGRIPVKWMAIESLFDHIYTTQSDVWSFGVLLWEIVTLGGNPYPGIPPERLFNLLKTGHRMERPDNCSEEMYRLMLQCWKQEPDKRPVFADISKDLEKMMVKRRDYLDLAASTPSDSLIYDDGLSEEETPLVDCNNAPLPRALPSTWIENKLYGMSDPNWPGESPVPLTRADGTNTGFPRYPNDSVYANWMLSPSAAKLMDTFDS

What was measured:
[1] = molecular target: Proto-oncogene tyrosine-protein kinase Src (Homo sapiens, UniProt P12931)
[2] = molecular target: BMP-2-inducible protein kinase (Homo sapiens, UniProt Q9NSY1)
[3] = molecular target: Non-receptor tyrosine-protein kinase TYK2 (Homo sapiens, UniProt P29597)
[4] = molecular target: Protein kinase C alpha type (Homo sapiens, UniProt P17252)
[5] = molecular target: Myosin light chain kinase, smooth muscle (Homo sapiens, UniProt Q15746)
[6] = molecular target: Proto-oncogene tyrosine-protein kinase receptor Ret (Homo sapiens, UniProt P07949)
Also: in the data inactive means no Kd found up to 30 µM.

- Kd [1]: active: 0.592 µM
SMILES: O=C(Nc1c[nH]nc1-c1nc2cc(CN3CCOCC3)ccc2[nH]1)NC1CC1 [AT-9283]

- Kd [2]: active: 0.216 µM
SMILES: CCS(=O)(=O)N1CC(CC#N)(n2cc(-c3ncnc4[nH]ccc34)cn2)C1 [BARICITINIB]

- Kd [4]: inactive: > 30 µM
SMILES: O=S(=O)(c1cccc2c(O)nccc12)N1CCCNCC1 [HYDROXYFASUDIL]

Continued, compound first:

SMILES: CC[C@@](C)(Nc1ccnc(-c2c[nH]c3ncccc23)n1)C(=O)NCC(F)(F)F [DECERNOTINIB]
- Kd [3]: inactive: > 30 µM

SMILES: O=C(Nc1nc2cccc(-c3ccc(CN4CCS(=O)(=O)CC4)cc3)n2n1)C1CC1 [FILGOTINIB]
- Kd [3]: inactive: > 30 µM

SMILES: COC(=O)[C@@]1(O)C[C@H]2O[C@]1(C)n1c3ccccc3c3c4c(c5c6ccccc6n2c5c31)C(=O)NC4 [K-252A]
- Kd [5]: inactive: > 30 µM

SMILES: CNC(=O)c1cc(Oc2ccc(NC(=O)Nc3ccc(Cl)c(C(F)(F)F)c3)c(F)c2)ccn1 [REGORAFENIB]
- Kd [6]: active: 0.126 µM
